{"sequences": {"note": "By UniProt entry, the sequences of proteins in these tests, tags left out.", "UniProt P35372, whole entry": "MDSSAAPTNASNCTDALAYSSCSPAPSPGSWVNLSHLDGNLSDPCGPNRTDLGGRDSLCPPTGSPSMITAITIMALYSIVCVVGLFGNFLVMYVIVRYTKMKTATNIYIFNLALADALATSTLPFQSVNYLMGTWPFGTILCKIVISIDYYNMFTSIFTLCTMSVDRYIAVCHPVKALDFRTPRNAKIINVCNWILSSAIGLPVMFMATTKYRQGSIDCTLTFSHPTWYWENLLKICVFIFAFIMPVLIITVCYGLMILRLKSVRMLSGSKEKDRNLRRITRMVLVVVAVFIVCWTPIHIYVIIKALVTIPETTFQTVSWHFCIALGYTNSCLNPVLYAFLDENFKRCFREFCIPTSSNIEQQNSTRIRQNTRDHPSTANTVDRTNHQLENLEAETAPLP"}, "source": "BindingDB's records for US9315514", "data": [{"target": "Mu-type opioid receptor (Homo sapiens, UniProt P35372)", "experiment": "μ-Opioid Receptor Binding Assay", "settings": "pH 7.4", "units": {"Ki": "nM"}, "values": [{"smiles": "CC(C)(C)[C@@]1(C)OC(c2ccccc2)O[C@]23CC[C@@]4(C[C@@H]21)[C@H]1Cc2ccc(O)c5c2[C@@]4(CCN1CC1CC1)[C@H]3O5", "note": "(some centres undefined)", "Ki": 2.26}, {"smiles": "CCCC1O[C@]23CC[C@@]4(C[C@@H]2[C@@](C)(C(C)(C)C)O1)[C@H]1Cc2ccc(O)c5c2[C@@]4(CCN1CC1CC1)[C@H]3O5", "note": "(some centres undefined)", "Ki": 0.54}, {"smiles": "CCC1O[C@]23CC[C@@]4(C[C@@H]2[C@@](C)(C(C)(C)C)O1)[C@H]1Cc2ccc(O)c5c2[C@@]4(CCN1CC1CC1)[C@H]3O5", "note": "(some centres undefined)", "Ki": 0.35}, {"smiles": "CC(C)(C)[C@@]1(C)OCO[C@]23CC[C@@]4(C[C@@H]21)[C@H]1Cc2ccc(O)c5c2[C@@]4(CCN1CC1CC1)[C@H]3O5", "Ki": 0.45}]}]}
